The procedure of this data set:
The solubility of the organic carboxylic acid strontium salts, were measured in water. The solubility of these salts was also measured as a function of temperature. This was performed by incubating the saturated solutions of the salts in temperature controlled incubators.
The buffered solutions were immersed into a bath of water temperature controlled at either room temperature (22-24° C.), at 30° C. or at 40° C. […] In order to eliminate any reminiscent strontium chloride influence on the determination of solubility, all the precipitate was collected at the bottom of the test tubes and the solutions above the precipitate were carefully removed and substituted by fresh solutions. […] From these solutions, the dissolved proportions of the strontium salt were collected in volumes of 1 mL at the specified temperature. […]
Two methods were used for quantification of strontium in solutions: Flame Atomic Absorption Spectrometry (F-AAS), and the more sensitive inductively-coupled-plasma-mass spectrometry (ICP-MS).
The solubilities were investigated as described above, and strontium content in the saturated solutions determined as described here below.
Some of the very soluble strontium salts were further diluted before analysis by F-AAS. […] Strontium was measured at a slit with of 0.2 nm, the wavelength was 460.8 nm operated at an energy of 58 and a current of 8 mA. […]

Take “strontium α-ketoglutarate [α-ketogluterate]”: the “SOLUBILITY AT ROOM TEMPERATURE (22-24° C. mg/L) In water” value came to 1316 mg/L.

The values are drawn from patent US20060275503A1, “Combination treatment with strontium for the prophylaxis and/or treatment of cartilage and/or bone conditions” (Nordic Bone A/S, priority 2003, published 2006).
